## Properties, as collected for the OPERA models

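OPERA's authors assembled the values from existing databases and did not measure them anew. A listed value is a point estimate from one report or more. Method and conditions are not stated for these values. Where a salt, mixture or single isomer is drawn, the source does not say that exactly this form was tested. Some upstream entries may be estimates or bounds without being marked so.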

The melting point is given in degrees Celsius. Boiling points are in °C, nominally at 760 mmHg. logP is the log10 of the octanol-water partition coefficient; higher is more lipophilic. Water solubility is log10 of mol/L, nominally at 25 °C; higher is more soluble. Vapor pressures (log10 mmHg) refer to near room temperature, 15 to 30 °C; higher is more volatile. The unbound fraction in human plasma runs from 0 (all bound) to 1 (all free). Intrinsic clearance (human, µL/min per 10^6 hepatocytes): higher is faster turnover, and 0 stands for none detected. "–" marks a cell with nothing listed here.

| MP (°C) | bp (°C) | logP (octanol/water) | log S (log10 mol/L) | vapor pressure (log10 mmHg) | fu | intrinsic clearance (µL/min/10^6 cells) | compound | name |
|---|---|---|---|---|---|---|---|---|
| – | – | 2.91 | -3.348 | – | – | – | CCOC(=O)C(=CC=Cc1ccccc1)NC=O | Ethyl 2-formamido-5-phenylpenta-2,4-dienoate |
| – | 183.3 | – | – | -0.62 | – | – | O=C(O)C(F)(F)C(F)OC(F)(F)C(F)(F)C(F)(F)OC(F)(F)F (stereo unspecified) | 4,8-Dioxa-3H-perfluorononanoic acid |
| 61.6 | – | – | – | -5.32 | – | – | CCCC[N+](CC)(CCCC)CCCC.CCOS(=O)(=O)[O-] | Tributylethylammonium ethyl sulphate |
| – | – | 4.62 | -6.777 | – | – | – | CCCCCCCCCCCCCC[Si](C)(O[Si](C)(C)C)O[Si](C)(C)C | Capryl methicone |
| 138 | – | 1.3 | -3.138 | -5.59 | – | – | CNC(=O)c1cc(Oc2ccc(N)c(F)c2)ccn1 | 4-(4-Amino-3-fluorophenoxy)-N-methylpyridine-2-carboxamide |
| – | – | – | – | – | 0.145 | 2.27 | O=C(NO)C1(NS(=O)(=O)c2ccc(Oc3ccc(F)cc3)cc2)CCOCC1 | – |
| 56.37 | – | 3.71 | – | -6.378 | – | – | COc1ccc(C(=O)CSc2cccc(OC)c2)cc1 | 1-(4-Methoxyphenyl)-2-[(3-methoxyphenyl)sulfanyl]ethan-1-one |
| -18.5 | – | – | -6.733 | – | – | – | CCCCCCCCCCCC(=O)OCCC(C)C | Dodecanoic acid, 3-methylbutyl ester |
| – | – | -2.7 | 0.469 | – | – | – | OCCN1C[C@H](O)[C@@H](O)[C@H](O)[C@H]1CO | Miglitol |
| – | – | – | -2.79 | -5.58 | – | – | CC(C)(C)Nc1nc(N)nc(Cl)n1 | Desethylterbutylazine |
| -12 | – | – | -7.076 | – | – | – | CCCCCCCCCCCC(=O)OCCCCCCCCCCC(C)C | 11-Methyldodecyl laurate |
| 172 | – | – | -7.291 | -10.17 | – | – | CCOc1ccc(-c2nc(-c3ccccc3)nc(-c3ccccc3O)n2)cc1 | 2-[4-(4-Ethoxyphenyl)-6-phenyl-1,3,5-triazin-2-yl]phenol |
| 12 | 170.5 | 0.41 | – | – | – | – | CC(C)c1ccc(S(=O)(=O)O)cc1 | 4-Isopropylbenzenesulfonic acid |
| 104 | – | – | -2.551 | – | – | – | CC(=O)OCCCS(=O)(=O)c1ccc(S(N)(=O)=O)s1 | 3-[(5-Sulfamoyl-2-thienyl)sulfonyl]propyl acetate |
| – | 306 | – | -6.87 | -4.824 | – | – | CCCCCCCCCC(C)/C=C(/C(C)=O)C(=O)OCC (stereo partly drawn) | – |
| – | – | 2.69 | -1.98 | -2.48 | – | – | CCCc1ccc2c(c1)OC(C(C)=O)O2 (stereo unspecified) | 1-(5-Propyl-1,3-benzodioxol-2-yl)ethanone |
| – | – | 3.91 | -6 | – | – | – | Cc1ccc2oc(C=Cc3nc4cc(C)ccc4o3)nc2c1 | Benzoxazole, 2,2'-(1,2-ethenediyl)bis[5-methyl- |
| -14.16 | – | -2.3 | – | – | – | – | CCn1cc[n+](C)c1.O=S(=O)([O-])C(F)(F)F | 1-Ethyl-3-methylimidazolium trifluoromethanesulfonate |
| 359.9 | – | -1.37 | -5.06 | -7.011 | – | – | O=C(O)c1ccc(/N=N/c2c(O)ccc3cc(S(=O)(=O)[O-])ccc23)cc1.O=C(O)c1ccc(/N=N/c2c(O)ccc3cc(S(=O)(=O)[O-])ccc23)cc1.[Sr+2] | C.I. Pigment Orange 79 |
| 37.85 | 271.2 | 4.35 | -4.385 | -1.593 | – | – | CC(C)(C#N)CC1=CCC2CC1C2(C)C (stereo unspecified) | – |
| – | 251.6 | – | – | -1.888 | – | – | COCc1c(C)cccc1N | 2-(Methoxymethyl)-3-methyl-aniline |
| – | 307.5 | – | -3.476 | -2.451 | – | – | Fc1c(Cl)ncnc1Cc1ccccc1Cl | 4-Chloro-6-(2-chlorophenoxy)-5-fluoropyrimidine |
| – | – | 0.246 | -2.959 | – | – | – | O=c1[nH]c2[nH]cnc(=O)c2[nH]1 | 1H-Purine-6,8-dione, 7,9-dihydro- |
| -31.3 | – | 3.37 | -3.559 | – | – | – | CCCCCC[C@@H](O)C/C=C\CCCCCCCC(=O)NCCCN(C)C | – |
| – | – | – | -1.719 | -8.01 | – | – | CC(C)c1nn(C(=O)NC(C)(C)C)c(=O)n1N | Amicarbazone |

The first 2 entries again:

| compound | name | MP (°C) | bp (°C) | logP (octanol/water) | log S (log10 mol/L) | vapor pressure (log10 mmHg) | fu | intrinsic clearance (µL/min/10^6 cells) |
|---|---|---|---|---|---|---|---|---|
| CCOC(=O)C(=CC=Cc1ccccc1)NC=O | Ethyl 2-formamido-5-phenylpenta-2,4-dienoate | – | – | 2.91 | -3.348 | – | – | – |
| O=C(O)C(F)(F)C(F)OC(F)(F)C(F)(F)C(F)(F)OC(F)(F)F (stereo unspecified) | 4,8-Dioxa-3H-perfluorononanoic acid | – | 183.3 | – | – | -0.62 | – | – |

Source: data files of OPERA 2.9 (Mansouri et al.), github.com/kmansouri/OPERA.